Measurements reported in article PMC12091851, “Replacing a Cereblon Ligand by a DDB1 and CUL4 Associated Factor 11 (DCAF11) Recruiter Converts a Selective Histone Deacetylase 6 PROTAC into a Pan‐Degrader” (Chemmedchem, 2025).

Tested on: MDA-MB-231 cells
Test: Clonogenic growth assay
Assay type: cell-based, human
Settings: 10 μM for 48 h, nine days of growth

Which “reduction of colonies (clonogenic growth)” value does the source give for `O=C(CCCCCCNC(=O)c1ccc(NC(=O)CCCCCCCNC(=O)COc2cccc3c2C(=O)N(C2CCC(=O)NC2=O)C3=O)cc1)NO` (stereo not shown) [Compound A6] here?
The value was “did not result in a significant reduction in clonogenic growth”.
